According to publication PMC3813364 (Iranian Journal of Pharmaceutical Research : IJPR, 2013):
“Also recorded” adds a separate entry of the source.

Tests used:
[1] = dose of 1.0 g/Kg/day; cited from earlier work
[2] = cited from earlier work
[3] = test system: everted sacs of rat small intestine (jejunum); experiment: Etoposide mucosal-to-serosal transport across everted gut sac in absence or presence of excipients/P-gp inhibitor; details: etoposide 25 μg/mL; verapamil 100 μg/mL, TPGS 0.002-0.1 mg/mL, PEG 400 0.05, 0.1 and 0.5% w/v; compared to control
[4] = test system: everted sacs of rat small intestine (jejunum); experiment: LDH release of the everted gut sac; details: TPGS 0.1 mg/mL, PEG 0.5% w/v, 90 min
Description: The viability and any possible damage of the gut were evaluated by measuring the release of the cytosolic enzyme lactic dehydrogenase (LDH) as an indicator of cell damage ([18]). The LDH activity was determined in the incubation media in the absence or presence of the excipients using LDH-P kit from Kimia pajouhan (Tehran, Iran). The results were calculated as U/L/cm^2 of sac area (1 unit reduces 10^-6 mol pyruvate per min at pH of 7.5). The influence of excipients (using the maximum concentrations) on the viability of gut sac was measured at 30, 60 and 90 min and compared to the control group (without adding any excipient).

LDH release in presence of excipient versus control [4]: not notably changed
Substance: D-α-tocopherol polyethylene glycol 1000 succinate [TPGS]
Toxicity [1]: non-toxic | CMC [2]: 0.2 mg/mL | Effect on absorptive transport/permeability of etoposide (in words) [3]: significantly enhanced; also recorded: significant effects
